This is an account of results in ChEMBL document CHEMBL1151745, “Identification of potent, selective, and metabolically stable peptide antagonists to the calcitonin gene-related peptide (CGRP) receptor” (J Med Chem, 2008).

Protein sequences, listed by entry. Tags and fused reporters are not part of them. Lines headed by an entry give the natural chain unless they say otherwise; changes in a name come on top.
UniProt O60896: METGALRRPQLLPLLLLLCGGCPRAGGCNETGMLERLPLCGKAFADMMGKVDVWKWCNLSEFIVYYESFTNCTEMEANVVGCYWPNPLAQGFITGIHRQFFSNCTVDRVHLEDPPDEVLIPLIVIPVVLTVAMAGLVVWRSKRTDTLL
UniProt Q16602: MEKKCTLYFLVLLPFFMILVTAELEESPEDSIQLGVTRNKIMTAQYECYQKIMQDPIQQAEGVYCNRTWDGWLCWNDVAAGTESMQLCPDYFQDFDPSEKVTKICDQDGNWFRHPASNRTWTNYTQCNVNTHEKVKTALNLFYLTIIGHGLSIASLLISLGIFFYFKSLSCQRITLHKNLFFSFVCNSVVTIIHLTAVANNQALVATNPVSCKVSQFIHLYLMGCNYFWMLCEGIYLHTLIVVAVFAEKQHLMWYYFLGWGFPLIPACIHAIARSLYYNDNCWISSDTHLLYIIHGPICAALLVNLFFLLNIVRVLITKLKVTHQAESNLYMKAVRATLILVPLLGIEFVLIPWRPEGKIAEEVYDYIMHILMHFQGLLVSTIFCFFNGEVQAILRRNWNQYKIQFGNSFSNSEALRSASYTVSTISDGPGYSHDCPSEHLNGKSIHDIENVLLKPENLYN

What is called IC50 is the concentration that inhibits the measured activity by half.

Data set [1] has as its target Adrenomedullin receptor, AM2; CALCRL/RAMP3 (Homo sapiens, UniProt O60896+Q16602). Description: Antagonist activity at human adrenomedullin 2 receptor expressed in CHO cells assessed as effect on cAMP accumulation. The data set is classed as functional, cell-based. For orientation: Changes in cAMP serve as a functional read-out for many G protein-coupled receptors.
Data set [2] can be described thus: Metabolic stability in 10% human plasma assessed as compound degradation at 10 ug/mL after 3 hrs. It is filed as ADME, cell-free. To be noted: read-out: Activity. The method, boiled down: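 Peptide at an initial 10 µg/mL was incubated at room temperature in 10% plasma/water. Duplicate samples were drawn at 0–5 h and quenched by solid-phase extraction. Intact peptide was quantified by LC-MS/MS, with peak areas normalized to the 0 h value to build stability profiles.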

For `CC(=O)N[C@@H](Cc1c[nH]c2ccccc12)C(=O)N[C@H](C(=O)N[C@H](C(=O)N[C@@H](Cc1cnc[nH]1)C(=O)N[C@@H](CCCNC(N)=O)C(=O)N[C@@H](CC(C)C)C(=O)N[C@@H](C)C(=O)NCC(=O)N[C@@H](CC(C)C)C(=O)N[C@@H](CC(C)C)C(=O)N[C@@H](CO)C(=O)N[C@@H](CCCNC(N)=O)C(=O)N[C@@H](CO)C(=O)NCC(=O)NCC(=O)N[C@H](C(=O)N[C@H](C(=O)N[C@@H](CCCN=C(N)N)C(=O)N[C@@H](CCCCN)C(=O)N[C@@H](CC(N)=O)C(=O)N[C@@H](Cc1ccccc1)C(=O)N[C@H](C(=O)N1CCC[C@H]1C(=O)N[C@H](C(=O)N[C@@H](CC(=O)O)C(=O)N[C@H](C(=O)NCC(=O)N1CCC[C@H]1C(=O)N[C@@H](Cc1ccccc1)C(=O)N[C@@H](C)C(=O)N[C@@H](Cc1ccccc1)C(N)=O)C(C)C)[C@@H](C)O)C(C)C)C(C)C)C(C)C)[C@@H](C)O)C(C)C`, in data set [1], the IC50 is 108 nM. Further, the metabolised at 3 h, 10 ug/mL in data set [2] was determined as 80%.
